The values that follow come from US20050182242A1, “Global analysis of protein activities using proteome chips” (priority 2001, published 2005).

Common to all, as to settings: liposome binding signal on yeast proteome chip, Cy3-streptavidin detection
The subject of data set [1] is phosphatidylcholine (PC) liposomes. In words: Yeast proteome chip probed with PC liposomes. The text has this: (§1) To identify PI-binding proteins in yeast, liposomes were used as probes because the liposome provides the most relevant physiological condition to assay the interactors. Six types of liposomes were used. Each contains phosphatidylcholine (“PC”) with 1% (w/w) N-(biotinoyl)-1,2-dihexadecanoyl-sn-glycero-3-phosphoethanolamine, triethylammonium salt (biotin DHPE). The biotinylated lipid serves as a label that can be detected by Cy3-streptavidin (21). In addition to PC, the five other liposomes contain either 5% (w/w) PI(3)P, PI(4)P, PI(3,4)P2, PI(4,5)P2, or PI(3,4,5)P3 (FIG. 3A). Each of these phospholipids has been found in yeast except PI(3,4,5)P3 (Odorizzi et al., 2000, TIBS 25:229; Fruman et al., 1998, Annu. Rev. Biochem. 67:481; Martin, 2000, Annu. Rev. Cell Dev. Bio. 14:231; Wera et al., 2001, FEMS Yeast Res. 1406:1).
(§2) The protein-liposome interaction was assayed as follows. Appropriate amounts of each lipid in chloroform were mixed and dried under nitrogen. The lipid mixture was resuspended in TBS buffer by vortexing. The liposomes were created by sonication. Blocked proteome chips were washed three to five times in PBS buffer, and the extra liquid on the glass surface was removed by tapping the slides vertically on a KIMWIPE™. 200 μl of liposome solution was added to the proteome chip and immediately covered by a hydrophobic plastic cover slip (GRACE BIO-LAB™, USA). […]

In a further data set the test system is PI(3,4,5)P3 liposomes. In words: Yeast proteome chip probed with PI(3,4,5)P3 liposomes.
From the text: as §1, §2

For a further data set, the system named is PI(3,4)P2 liposomes. The experiment in a line: Yeast proteome chip probed with PI(3,4)P2 liposomes.
From the text: as §1, §2

The test system of a further data set is PI(3)P liposomes. The experiment in a line: Yeast proteome chip probed with PI(3)P liposomes.
From the text: as §1, §2

Another data set deals with PI(4,5)P2 liposomes. The experiment in a line: Yeast proteome chip probed with PI(4,5)P2 liposomes.
From the text: as §1, §2

The subject of the next data set is PI(4)P liposomes. The experiment in a line: Yeast proteome chip probed with PI(4)P liposomes.
From the text: as §1, §2

B1: YEL048C: yeast GST-HisX6 fusion protein on proteome chip (protein, UniProt P32613 1-152, looked up)
TRAPP-associated protein TCA17: MSLRPCFVSLIDESDKPILIYVPNEAENEMNDVLKYNVLSNISLDYFESALVEWHSLDSKPLLKSIFQLEGVSVFAMLIKQTGLKIVIGFEQKSLSGADDEFEAINQIFETVRKIYIRVKCNPLLVSGDEKSIIKSLERKFDELFISTEVEL
modifications: GST-His6 tag
notes: yeast GST-HisX6 fusion protein on proteome chip
On to B1, for which the PC in data set [1] came to 140.58. The “PI(3, 4, 5)P3” value with PI(3,4,5)P3 liposomes is 87.75. Moreover, the “PI(3, 4)P2” value in the data set on PI(3,4)P2 liposomes was 76.13. The “PI(3)P” value with PI(3)P liposomes is recorded as 17.75. In the data set on PI(4,5)P2 liposomes, the “PI(4, 5)P2” value amounted to 45.07. Besides, in the data set on PI(4)P liposomes, the “PI(4)P” value was 68.81.
